{
  "source": "paper PMC3767463",
  "about": "(Journal of the American Chemical Society, 2013)",
  "key": {"HdmX level": {"tested_on": "HdmX level", "assay": "Western blot of LNCaP cell extracts", "type": "cell-based, human", "details": "read-out: EC50, down regulation of HdmX, MCo-PMI 0–100 μM, 48 h"}, "p53 level": {"tested_on": "p53 level", "type": "cell-based, human", "details": "read-out: EC50, upregulation of p53; LNCaP; MCo-PMI 0–100 μM, 48 h; western blot"}, "Hdm2 level": {"tested_on": "Hdm2 level", "assay": "Western blot of LNCaP cell extracts", "type": "cell-based, human", "details": "read-out: EC50, upregulation of Hdm2, MCo-PMI 0–100 μM, 48 h"}, "p21 level": {"tested_on": "p21 level", "assay": "Western blot of LNCaP cell extracts", "type": "cell-based, human", "details": "read-out: EC50, upregulation of p21, MCo-PMI 0–100 μM, 48 h"}, "HCT116 p53+/+ cells": {"tested_on": "HCT116 p53+/+ cells", "details": "read-out: EC50, cell viability; HCT116 (wild-type p53); 48 h; MTT; triplicate"}},
  "data": [
    {"smiles": "CC[C@H](C)[C@@H]1NC(=O)[C@@H]2CSSC[C@@H]3NC(=O)[C@H](C(C)C)NC(=O)CNC(=O)CNC(=O)[C@H](C)NC(=O)[C@H](CO)NC(=O)[C@H](CC(C)C)NC(=O)[C@H](CC(C)C)NC(=O)[C@H](CC(N)=O)NC(=O)[C@H](Cc4c[nH]c5ccccc45)NC(=O)[C@H](Cc4ccc(O)cc4)NC(=O)[C@H](CCC(=O)O)NC(=O)[C@H](C)NC(=O)[C@H](Cc4ccccc4)NC(=O)[C@H](CO)NC(=O)[C@H]([C@@H](C)O)NC(=O)[C@@H]4CCCN4C(=O)[C@H](C)NC(=O)[C@H](CCCCN)NC(=O)[C@H](CO)NC(=O)[C@H](C)NC(=O)CNC(=O)[C@H](CO)NC(=O)CNC(=O)[C@H](CO)NC(=O)CNC(=O)[C@@H]4CSSC[C@H](NC(=O)[C@H](CC(=O)O)NC(=O)[C@H](CO)NC(=O)[C@H](CC(=O)O)NC(=O)[C@H](CCCNC(=N)N)NC(=O)[C@H](CCCNC(=N)N)NC(=O)[C@H](CSSC[C@H](NC1=O)C(=O)N[C@@H](CCCNC(=N)N)C(=O)NCC(=O)N[C@@H](CC(N)=O)C(=O)NCC(=O)N[C@@H](Cc1ccc(O)cc1)C(=O)N4)NC(=O)[C@H](CCCNC(=N)N)NC(=O)[C@H](CCC(N)=O)NC(=O)[C@H](CC(C)C)NC(=O)[C@H]([C@@H](C)CC)NC(=O)[C@H](CCCCN)NC(=O)[C@@H]1CCCN1C3=O)C(=O)N1CCC[C@H]1C(=O)NCC(=O)N[C@@H](C)C(=O)N2", "note": "[MCo-PMI]", "values": [
      {"measurement": "EC50", "setting": "HdmX level", "value": "~30", "unit": "µM"},
      {"measurement": "EC50", "setting": "p53 level", "value": "~20", "unit": "µM"},
      {"measurement": "EC50", "setting": "Hdm2 level", "value": "~15", "unit": "µM"},
      {"measurement": "EC50", "setting": "p21 level", "value": "~30", "unit": "µM"},
      {"measurement": "EC50", "setting": "HCT116 p53+/+ cells", "value": "~2", "unit": "µM"}
    ]}
  ]
}
